From PMC8491194, “A cyclic peptide retards the proliferation of DU145 prostate cancer cells in vitro and in vivo through inhibition of FGFR2” (MedComm, 2020)

Experiments:
[1] = system: heart, liver, spleen, lung, and kidney; assay: H&E staining of major organs of tumor-bearing mice; type: in vivo, BALB/C‐nu/nu mice; conditions: tumor-bearing mice at functional doses, paraffin sections
Method: DU145 cells with a density above 90% were harvested in to a microtube. The cell concentration was adjusted to 1 × 10^7 cells/mL, and two million cells were injected under the right arm of each individual. After injection, the tumors grew to a size of approximately 200 mm^3 in the following days. In terms of experimental grouping, there were five experimental groups; namely, the blank control group (PBS), the P5‐3 group (50 mg/kg dose of biotin‐P5‐3), the P5 group (concentration gradient of 10‐25 mg/kg), the DcP5 group (concentrations of 10, 25, and 50 mg/kg dose of biotin‐DcP5 peptide), and the positive control group (FGFR2‐targeted antineoplastic drug AZD4547 with a dose of 6.25 mg/kg). Animal models were randomly selected and assigned to each experimental group, and compounds were administered by intratumoral injections. The dosing regimen was one injection a day for 7 days. The length and width of the tumor were measured using a Vernier caliper once a day, and the animal's weight was recorded once a day from the beginning of the experiment. On Day 14, blood samples of each animal were collected, the tumor tissue was separated and weighed, and internal organs were collected. The tumor volume was calculated according to the formula V = ab ^2/2 (a refers to the length of the tumor, and b refers to the width). […]

[2] = Body weight of tumor-bearing mice; type: in vivo, BALB/C‐nu/nu mice; conditions: various dosing regimens; data not shown
Method: DU145 cells with a density above 90% were harvested in to a microtube. The cell concentration was adjusted to 1 × 10^7 cells/mL, and two million cells were injected under the right arm of each individual. After injection, the tumors grew to a size of approximately 200 mm^3 in the following days. In terms of experimental grouping, there were five experimental groups; namely, the blank control group (PBS), the P5‐3 group (50 mg/kg dose of biotin‐P5‐3), the P5 group (concentration gradient of 10‐25 mg/kg), the DcP5 group (concentrations of 10, 25, and 50 mg/kg dose of biotin‐DcP5 peptide), and the positive control group (FGFR2‐targeted antineoplastic drug AZD4547 with a dose of 6.25 mg/kg). Animal models were randomly selected and assigned to each experimental group, and compounds were administered by intratumoral injections. The dosing regimen was one injection a day for 7 days. The length and width of the tumor were measured using a Vernier caliper once a day, and the animal's weight was recorded once a day from the beginning of the experiment. On Day 14, blood samples of each animal were collected, the tumor tissue was separated and weighed, and internal organs were collected. The tumor volume was calculated according to the formula V = ab ^2/2 (a refers to the length of the tumor, and b refers to the width).

Q: Which results are given for AZD4547 [reference compound]?
A: toxicity toward heart, liver, spleen, lung, and kidney (H&E morphology) [1]: negligible toxicity; body weight versus other groups incl. blank [2]: little difference in body weight
